Measured values from patent publication US20100247533A1, “TREATMENT WITH A HUMANIZED ANTI-EGFR IgG1 ANTIBODY AND IRINOTECAN” (priority 2009, published 2010).

Tested on: A549 lung adenocarcinoma xenografts
Experiment: Animal survival study in vivo, A549 lung adenocarcinoma xenograft model
Parameters: species or system SCID beige mice
Experimental: Partially fucosylated GlycArt-mAb was provided as stock solution (c=11.3 mg/ml), in a buffer containing histidine, trehalose and polysorbate 20. The antibody stock solution was appropriately diluted in PBS prior to injection.
The anti-EGFR antibody cetuximab (Erbitux®) was purchased as clinical formulation (5 mg/ml) from Merck Pharma GmbH, Darmstadt, Germany. The antibody concentration was adjusted by dilution of the reconstituted stock solution prior to injection.
Irinotecan/CPT-11 (Campto®) was purchased as clinical formulation (20 mg/ml) from Pfizer Pharma GmbH, Karlsruhe, Germany. The antibody concentration was adjusted by dilution of the reconstituted stock solution prior to injection.
A549 human Non Small Cell Lung Cancer (NSCLC) cells were obtained from ATCC. The tumor cell line was routinely cultured in RPMI medium (PAA Laboratories, Austria) supplemented with 10% fetal bovine serum (PAA Laboratories, Austria) and 2 mM L-glutamine, at 37° C. in a water-saturated atmosphere at 5% CO2. […]
The in vivo anti-tumor efficacy of the combination of GlycArt-mAb with irinotecan, compared to the combination of the commercially available anti-EGFR antibody cetuximab with irinotecan, and both anti-EGFR antibodies and irinotecan as single agents was analyzed in the A549 lung adenocarcinoma xenograft model. […] The data was statistically analyzed by log rank test.

## cetuximab
Antibodies 25 mg/kg i.p. every seven days, irinotecan 20 mg/kg i.p. four times, single agents or combinations
  p (log rank test), survival compared to vehicle control: 0.0031
Single agents, antibodies 25 mg/kg i.p. every seven days (day 7-98), irinotecan 20 mg/kg i.p. day 7, 10, 14, 17, A549 cells injected i.v.
  animal survival compared to vehicle control: significantly prolonged animal survival
